The source of these data is US20220380376A1, “Nitrogen Oxide-Donating PDE-5 and/or PDE-6 Inhibitor Compounds” (ILDONG PHARMACEUTICAL CO., LTD., priority 2019, published 2022).

Sequences of proteins named here, by UniProt entry; tags and fusion partners are left off.
UniProt P51160, whole entry: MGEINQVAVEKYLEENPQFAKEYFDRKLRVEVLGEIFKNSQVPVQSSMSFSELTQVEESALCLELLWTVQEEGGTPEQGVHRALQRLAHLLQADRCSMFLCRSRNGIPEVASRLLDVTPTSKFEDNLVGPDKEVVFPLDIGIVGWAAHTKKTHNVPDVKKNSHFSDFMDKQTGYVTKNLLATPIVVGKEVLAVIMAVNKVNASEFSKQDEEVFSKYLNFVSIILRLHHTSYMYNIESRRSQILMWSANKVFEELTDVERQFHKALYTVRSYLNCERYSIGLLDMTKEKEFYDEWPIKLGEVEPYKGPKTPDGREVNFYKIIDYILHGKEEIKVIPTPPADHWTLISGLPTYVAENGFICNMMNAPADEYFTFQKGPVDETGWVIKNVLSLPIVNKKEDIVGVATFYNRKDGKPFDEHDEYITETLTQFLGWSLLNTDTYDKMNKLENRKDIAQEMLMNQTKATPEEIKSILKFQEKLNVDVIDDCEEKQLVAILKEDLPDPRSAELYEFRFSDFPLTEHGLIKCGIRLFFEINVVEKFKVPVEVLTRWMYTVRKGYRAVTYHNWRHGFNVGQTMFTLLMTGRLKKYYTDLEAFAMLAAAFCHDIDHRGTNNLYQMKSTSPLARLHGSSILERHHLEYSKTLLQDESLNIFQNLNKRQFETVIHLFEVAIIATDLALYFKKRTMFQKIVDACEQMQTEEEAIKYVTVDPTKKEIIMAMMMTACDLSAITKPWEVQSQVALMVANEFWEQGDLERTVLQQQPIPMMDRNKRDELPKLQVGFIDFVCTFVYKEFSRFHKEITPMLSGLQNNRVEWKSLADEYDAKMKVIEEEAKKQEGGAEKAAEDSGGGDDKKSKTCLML

Test [1] deals with human PDE-5A1 (Homo sapiens, UniProt O76074). The experiment in a line: Human PDE-5A1 inhibition assay (fluorescence polarization). The test is classed as biochemical. Particulars: read-out: IC50 (μM) PDE5A1; human PDE5A1, 100 nM FAM-cGMP, 60 minutes at room temperature.
The target in test [2] is human PDE-6C (Homo sapiens, UniProt P51160). The experiment in a line: Human PDE-6C inhibition assay (fluorescence polarization). The settings on record: read-out: IC50 (μM) PDE6C, 100 nM FAM-cGMP, 60 minutes at room temperature. It counts as biochemical. Background: Polarisation of emitted light reports the rotation of a fluorescent probe.

The IC50 is the concentration that gives 50% inhibition.

For `CCCc1nc(C)c2c(=O)[nH]c(-c3cc(S(=O)(=O)N4CC(O)C4)ccc3OCC)nn12`, the IC50 in test [1] is below 0.01 µM.

For `CCCc1nn(C)c2c(=O)[nH]c(-c3cc(S(=O)(=O)N4CC(CN5CC(CCO)C5)C4)ccc3OCC)nc12`, the IC50 in test [2] and in test [1] was 0.01 to 0.1 µM throughout.
